Values quoted from earlier work in patent publication US12195551B2, “Combination of an ErbB-2/ErbB-3 bispecific antibody with endocrine therapy for breast cancer” (Merus N.V., priority 2017, dated 2025).

Conditions: human, in vivo; cited from earlier work

Question: Which “patients who develop cardiac dysfunction” value does the source give for “trastuzumab: anti-ErbB-2 monoclonal antibody that binds domain IV of ErbB-2” here?
Answer: 5-10%

Question: What about the “risk for developing asymptomatic cardiac dysfunction” value of the same substance?
Answer: about 25%
